Measurements published in patent US20140335050A1, “METHODS, COMPOSITIONS, AND KITS FOR THE TREATMENT OF CANCER” (The General Hospital Corporation, priority 2011, published 2014).

B1: IFN-B (protein, UniProt P01574 22-187, looked up)
Interferon beta: MSYNLLGFLQRSSNFQCQKLLWQLNGRLEYCLKDRMNFDIPEEIKQLQQFQKEDAALTIYEMLQNIFAIFRQDSSSTGWNETIVENLLANVYHQINHLKTVLEEKLEKEDFTRGKLMSSLHLKRYYGRILHYLKAKEYSHCAWTIVRVEILRNFYFINRLTGYLRN

How the values were obtained:
Type in all cases: cell-based, human
MUX melanoma cell line = experiment: Antibody staining and flow cytometry (intracellular Melan-A/MART-1, gp100, TRP-2; surface MHC Class I); conditions: three days, IFN-β 5000 Units/ml, 17-AEP 1 μg/ml, PU-H71 0.3 μg/ml, CCT018159 10 μg/ml
Description: (§1) Cells were fixed with 1% formaldehyde, permeabilized with 0.1% saponin, stained with monoclonal antibodies to melanocyte antigens. Antibodies were obtained with specificity for: MART-1 from Vector Labs (Burlingame, Calif.); gp100 HMB45 from DakoCytomation (Carpinteria, Calif.) and then visualized with goat anti-mouse FITC-conjugated secondary antibody from Invitrogen (Fredrick, Md.). The level of EGFP was determined by flow cytometry of unfixed cells that were washed and resuspended in 1×PBS.
(§2) Cells were plated at a density of 1×10^5 in 1 ml of medium in a 24-well plate and cultured for varying times as indicated in results. Typically, 3 days of culture in the presence of Hsp90 inhibitors was optimal for the functional studies performed. After incubation, cells were collected by trypsinization and then evaluated by flow cytometry.
(§3) Intracellular staining and flow cytometric analyses of cytoplasmic Melan-A/MART-1, and gp100 expression were performed as described previously. Cells were fixed with 1% formaldehyde, permeabilized with 0.1% saponin, stained with monoclonal antibodies to melanocyte antigens. Antibodies were obtained with specificity for: Melan-A/MART-1 from Vector Labs (Burlingame, Calif.); gp100/HMB45 from DakoCytomation (Carpinteria, Calif.) and then visualized with goat anti-mouse FITC-conjugated secondary antibody from Invitrogen (Frederick, Md.). The level of EGFP was determined by flow cytometry of unfixed cells washed and resuspended in 1×PBS. Surface staining of MHC Class I was carried out using the antibody W6/32 on cells harvested with Cell Stripper from MediaTech Inc. (Manassas, Va.) and carried out on ice.
(§4) Cell were seeded at 1×10^6 cells in a T25 flask with 10 ml of media for the 4 day IFN-beta pre-treatments. Cells were then harvested and plated in 24 well plate at 1×10^5 cells per well in 1 ml of media for 3 day treatments.
(§5) For surface staining of HLA Class I and II antigens, cells were harvested using CellStripper™ from Mediatech (Manassas, Va.). All staining steps were performed on ice. Following a first incubation with antibody to Class I (W6/32) or Class II (L243) for 30 minutes. Stained cells were washed twice with cold PBS and then stained with a goat anti-mouse FITC secondary antibody to allow for quantitative analysis by flow cytometry. For evaluation of cytoplasmic antigens, including Melan-A/MART-1 and gp100, cells were first fixed in paraformaldehyde and permeabilized with saponin as previously described. Staining for cytoplasmic antigens was carried out at room temperature (22° C.).

MU89 melanoma cell line = experiment: Antibody staining and flow cytometry (intracellular Melan-A/MART-1, gp100, TRP-2; surface MHC Class I/II); conditions: MU89 cells; Table 20; single agent or simultaneous combination
Description: as §1, §2, §3, §4, §5

[1] = test system: HeLa cervical carcinoma cells; experiment: Surface antibody staining and flow cytometry (MHC Class I/II); conditions: HeLa cells; Table 20; single agent or simultaneous combination
Description: as §3, §4, §5

[2] = test system: MCF-7 breast cancer cells; experiment: as above; conditions: MCF-7 cells; Table 20; single agent or simultaneous combination
Description: as §3, §4, §5

U2-OS osteosarcoma cells = experiment: as above; conditions: U2-OS cells; Table 20; single agent or simultaneous combination
Description: as §3, §4, §5

[3] = test system: U-118 MG glioma cell line; experiment: Antibody staining and flow cytometry (intracellular gp100; surface MHC Class I/II); conditions: U118 cells; Table 20; single agent or simultaneous combination
Description: as §1, §2, §3, §4, §5

Molecule	MHC Class I, geometric mean of surface staining (W6/32) (MUX melanoma cell line)	L243 (MHC Class II surface staining) (MU89 melanoma cell line)	W6/32 (MHC Class I surface staining) (MU89 melanoma cell line)	L243 (MHC Class II surface staining) [1]	W6/32 (MHC Class I surface staining) [1]	L243 (MHC Class II surface staining) [2]	W6/32 (MHC Class I surface staining) [2]	L243 (MHC Class II surface staining) (U2-OS osteosarcoma cells)	W6/32 (MHC Class I surface staining) (U2-OS osteosarcoma cells)	L243 (MHC Class II surface staining) [3]	W6/32 (MHC Class I surface staining) [3]
CO[C@H]1/C=C\C=C(/C)C(=O)NC2=CC(=O)C(NCCN3CCCC3)=C(C[C@@H](C)C[C@H](OC)[C@H](O)[C@@H](C)/C=C(\C)[C@@H]1OC(N)=O)C2=O [17-AEP]	219										
B1		1.8	65.1	5.2	370.8	10.3	368.2	3.2	416.6	2.7	299.2
